One molecule from patent US20090280196A1, “CISSUS QUADRANGULARIS PLANT EXTRACTS FOR TREATING OSTEOPOROSIS AND THE EXTRACTION PROCESS THEREOF” (priority 2006, published 2009) can be followed below.

For this experiment, the system named is MC3T3 cells. The experiment is described as follows: Bone formation experiment, ALP activity. Type of experiment: cell-based, murine. The settings on record: BMP-2 30 ng/ml, positive control. The text has this: One of the most frequently assayed biochemical markers is alkaline phosphatase, which is simple to measure biochemically. (Sodek & Berkman, 1987). Its expression pattern in osteoblasts (Doty & Schofield, 1976; Stein et al. 1996) and its involvement in mineralisation have been extensively documented (Wuthier & Register, 1984). However, many cell types in bone or marrow stroma contain alkaline phosphatase, such as hypertrophic chondrocytes (Wuthier & Register, 1984) and adipocytes (Beresford et al. 1993), while fibroblastic cells also have a low concentration of this enzyme. The alkaline phosphatase activity can provide a good indicator of osteoblast cells if the cartilage and marrow are removed by dissection. The present invention evaluates the bone formation that has occurred through Alkaline phosphatase assay and the proliferation that has occurred through Alamar blue assay.
MC3T3 cell lines were used for the bone formation studies. These cells are murine osteogenic mesenchymal precursor cells, which can be differentiated into osteoclasts by ascorbic acid and beta-glycerol phosphate.
The osteoblasts (MC3T3 cells) were seeded at a density of 75000 cells per well in 24 plates. The cells were culture for one day before the plant extracts were added. […]

B1: BMP-2: bone morphogenic protein -2, positive control, induces the differentiation of the osteoblasts (protein, UniProt P12643 283-396, looked up)
Bone morphogenetic protein 2: QAKHKQRKRLKSSCKRHPLYVDFSDVGWNDWIVAPPGYHAFYCHGECPFPLADHLNSTNHAIVQTLVNSVNSKIPKACCVPTELSAISMLYLDENEKVVLKNYQDMVVEGCGCR
With B1, the “ALP activity compared to the negative control” value is “induced”.
